Assay outcomes deposited in PubChem by several laboratories.
PKA-R1A activ: activates the PKA-R1A holoenzyme complex. PKA-R1A dissociation, Cy5-IP20 fluorescence polarization; scaled: DMSO 0%, 113 µM cGMP 100%. 0.083% of 340,000 active. activation, % at 11.4 µM;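 active = percent activation above the mean of all tested compounds plus 3 SD, cut at about 19% in these data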;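 also: higher means more PKAc released from R1A so a rise in polarization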
ABCB6 inh 2: inhibitors of human ABC transporter ABCB6 | K562-ABCB6 porphyrin accumulation, flow cytometry, 1 h; stronger effect = lower value | AID 602162 | Q9NP58 | 0.19% of 360,000 active | fluorescence ratio to DMSO, % at 10 µM;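 active = fluorescence ratio to DMSO below 75%, the collection mean minus 3 SD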;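 also: signal is porphyrin accumulated inside mitochondria; 100% equals median channel fluorescence of DMSO control wells; lower ratio means ABCB6 inhibition with less porphyrin fluorescence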
Yeast UUG start: modulators of start codon recognition fidelity in yeast; AID 602363; activity score, % at 18.7 µM; S. cerevisiae UUG-firefly luciferase reporter, luminescence/redox ratio; actives 0.13% (n = 350,000);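 active = replicate mean at a twofold rise or more, about +100% in these data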;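 note: firefly luciferase made from a UUG start codon reports start codon fidelity; reporter light over untreated wells divided by growth signal over untreated wells; some hits fall short of that in this replicate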
p-CIP stab down: lowers stability of the mouse p/CIP coactivator protein. Q05BA5. F442A p/CIP-EGFP cells, EGFP fluorescence, 16 h. decrease of EGFP signal, % at 10 µM. 0.01% of 290,000 active;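 active = EGFP signal decrease of at least 30% at 10 µM or well 3 SD below plate mean, unless failing retest; inactive = the rest, including hits failing retest or dose response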
PKA-R2B act: activates the human PKA-R2B holoenzyme complex. P22694+P31323. PKA-R2B holoenzyme dissociation, Cy5-IP20 fluorescence polarization; R2B truncated from residue 108, S112A mutant; 0% DMSO only, 100% 113 µM cGMP. activation, % at 11.4 µM. 0.079% of 340,000 active. AID 504700;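 active = activation above a cutoff set at the mean over all compounds plus 3 SD, cut at about 18% in these data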;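 also: higher means more holoenzyme dissociation and a rise in polarization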
Granule exo inh: lytic granule exocytosis inhibition; TALL-104 LAMP-1 surface exposure, flow cytometry; cells stimulated with thapsigargin and PMA; inhibition, % at 10 µM; 0.66% of 360,000 active; AID 651702;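 active = inhibition above about 55%, limit read from the data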
Exocytosis CP01: lytic granule exocytosis inhibition; TALL-104 cells, LAMP-1 externalization, flow cytometry; stimulated with PMA plus thapsigargin; inhibition, % at 10 µM; AID 651954; 11% of 1,500 active; shares compounds with Granule exo inh; in the data active = inhibition above about 60%;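 also: 0% = stimulated vehicle wells and 100% = unstimulated wells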
Starred values were filed as active, the others as inactive; · = not tested or not shown. In the library only some 0.94% were active in any assay of this set; here they are far more common.

1: COC(C[C@H](O)[C@@H](C)[C@@H](O)COCc1ccccc1)OC
2: O=C(C[C@@H]1CC[C@@H](NS(=O)(=O)c2cccc(F)c2)[C@@H](CO)O1)N1CCCCC1
3: Cc1ccc(S(=O)(=O)Nc2c(O)ccc3ccccc23)cc1
4: CCOC(=O)c1cc(-c2csc(-c3cccc(Cl)c3)n2)on1
5: CCOC(=O)c1cc(-c2csc(Nc3c(C)cc(C)cc3C)n2)on1
screen / no.	1	2	3	4	5
PKA-R1A activ	-14.4	·	·	-1.5	-12.5
ABCB6 inh 2	103.0	·	127.0	100.0	91.0
Yeast UUG start	9.0	-8.4	-14.0	·	·
p-CIP stab down	7.1	·	·	21.1	-18.0
PKA-R2B act	2.4	·	·	0.2	-6.6
Granule exo inh	43.6	·	81.9*	5.8	90.8*
Exocytosis CP01	·	·	-11.5	·	85.7*

6: C[C@@H](NC(=O)C[C@@H]1CC[C@@H](NC(=O)C2CC2)[C@@H](CO)O1)c1ccccc1
7: CC(=O)Nc1cccc(OCC(=O)NCCC2=CCCCC2)c1
8: CCCCN(CCCC)c1nc(-c2ccncc2)nc2ccccc12
9: C[C@@H]1CN([C@H](C)CO)C(=O)c2cc(NC(=O)Cn3cnnn3)ccc2O[C@@H]1CN(C)C(=O)Nc1ccc(F)cc1
10: COc1ccc(C(=O)C(CN2CCCC2)c2ccccc2)cc1 (stereo not drawn)
screen / no.	6	7	8	9	10
PKA-R1A activ	·	-6.7	0.3	·	-4.5
ABCB6 inh 2	·	100.0	101.0	·	106.0
Yeast UUG start	-8.7	3.9	·	19.3	-19.8
p-CIP stab down	·	-2.8	-9.8	·	-1.9
PKA-R2B act	·	-3.8	-12.6	·	-1.4
Granule exo inh	·	94.8*	92.8*	·	-2.5
Exocytosis CP01	·	-14.3	68.2*	·	·

11: O=C(c1ccc(Cl)cc1)C(CN1CCCC1)c1ccccc1 (stereo not drawn)
12: COC(=O)c1ccc(NCc2c(O)ccc(O)c2Br)cc1Cl
13: COC(=O)c1ccc(NCc2cc(O)ccc2O)cc1O
14: CCC(=O)N1CCc2cc(Br)cc(S(=O)(=O)N(C)c3ccc(OC)cc3)c21
15: CCC(=O)N1CCc2cc(Br)cc(S(=O)(=O)CC(=O)OC)c21
screen / no.	11	12	13	14	15
PKA-R1A activ	-5.9	-14.5	0.6	-2.3	-6.7
ABCB6 inh 2	101.0	100.0	97.0	95.0	103.0
Yeast UUG start	1.8	·	·	·	-9.7
p-CIP stab down	7.5	·	·	-15.3	-19.0
PKA-R2B act	-6.0	-16.1	-6.8	-3.6	-7.7
Granule exo inh	59.1*	98.4*	43.5	73.6*	0.2
Exocytosis CP01	-9.3	79.7*	·	-12.4	·

16: CC(C)CCNC(=O)C1CCN(Cc2cccc(OCc3ccccc3)c2)CC1
17: COc1cc(CN2CCC(C(=O)NCCC(C)C)CC2)ccc1OCc1ccccc1
18: COCCNC(=O)C1CCCN(Cc2ccc(C(C)C)cc2)CC1 (stereo not drawn)
19: COCCNC(=O)C1CCCN(Cc2ccc(C)cc2)CC1 (stereo not drawn)
20: O=C(C[C@@H]1C[C@@H]2c3cc(NS(=O)(=O)c4ccc(F)cc4)ccc3O[C@@H]2[C@H](CO)O1)NCC(F)(F)F
screen / no.	16	17	18	19	20
PKA-R1A activ	2.8	5.4	·	·	·
ABCB6 inh 2	101.0	98.0	92.0	97.0	·
Yeast UUG start	-6.2	3.3	-18.0	·	-10.5
p-CIP stab down	7.4	-2.0	·	·	·
PKA-R2B act	-10.8	-0.2	·	·	·
Granule exo inh	68.7*	63.3*	67.5*	-4.8	·
Exocytosis CP01	-10.4	-11.6	-3.8	·	·

21: CCC(=O)N(C)C[C@@H]1Oc2cc(-c3ccccc3)ccc2S(=O)(=O)N([C@@H](C)CO)C[C@@H]1C
22: Cc1cccc(N(C)S(=O)(=O)c2ccc(-c3cnc(C4CC4)o3)cc2)c1
23: Cc1ccc(N(C)S(=O)(=O)c2cc(-c3cnc(C4CC4)o3)ccc2C)cc1
24: O=C(NCc1ccccn1)C1Nc2ccc(C(F)(F)F)cc2C2C=CCC12 (stereo not drawn)
25: COCCNC(=O)C1Nc2ccc(C(F)(F)F)cc2C2C=CCC12 (stereo not drawn)
screen / no.	21	22	23	24	25
PKA-R1A activ	·	-21.1	2.0	1.1	-0.9
ABCB6 inh 2	·	105.0	93.0	99.0	95.0
Yeast UUG start	25.1	-19.2	-20.8	-12.3	-18.7
p-CIP stab down	·	-5.7	7.6	·	·
PKA-R2B act	·	1.3	-3.9	0.0	6.2
Granule exo inh	·	-0.4	96.8*	64.1*	-2.4
Exocytosis CP01	·	·	43.6	-14.6	·

26: CC(C)Cn1c(N)c(S(=O)(=O)c2cccs2)c2nc3ccccc3nc21
27: COc1ccccc1N1CCN(CC(=O)NCC2CCCO2)CC1 (stereo not drawn)
28: COc1ccc(C(OC(=O)c2cccs2)C(=O)NCC2CCCO2)cc1 (stereo not drawn)
29: COc1ccccc1C(OC(=O)c1cccs1)C(=O)NCC1CCCO1 (stereo not drawn)
30: C[C@@H]1CN([C@H](C)CO)C(=O)c2cccc(NS(=O)(=O)c3cn(C)cn3)c2O[C@H]1CN(C)C
screen / no.	26	27	28	29	30
PKA-R1A activ	-7.3	0.9	-2.5	0.2	·
ABCB6 inh 2	111.0	100.0	103.0	103.0	·
Yeast UUG start	-10.1	-10.7	-1.9	-8.0	7.3
p-CIP stab down	-12.7	5.6	-12.5	-15.5	·
PKA-R2B act	5.1	-3.2	-3.3	0.3	·
Granule exo inh	80.0*	58.2*	1.1	61.4*	·
Exocytosis CP01	-11.4	-13.3	·	-11.6	·

31: CCN(C[C@H]1N[C@@H](CO)[C@@H]1c1ccc(C2=CCCC2)cc1)C(=O)c1ccncc1
32: COc1cccc(O)c1CN1CCC(C(=O)Nc2ccc(-c3cccc(C)c3)cc2)CC1
33: COc1cccc(O)c1CN1CCC(C(=O)Nc2ccc(Oc3cccnc3)cc2)CC1
34: CCOc1ccccc1CNC(=O)CCn1ccc2cc(S(=O)(=O)N3CCCCC3)ccc21
35: CCOc1ccccc1CNC(=O)Cn1ccc2cc(S(=O)(=O)N3CCCCCC3)ccc21
screen / no.	31	32	33	34	35
PKA-R1A activ	·	2.9	-4.5	9.7	-3.6
ABCB6 inh 2	·	95.0	94.0	98.0	93.0
Yeast UUG start	22.9	-1.7	-2.4	-10.8	12.9
p-CIP stab down	·	-9.6	-12.8	-12.4	-15.3
PKA-R2B act	·	-3.3	-4.8	-0.5	1.1
Granule exo inh	·	66.2*	-1.4	62.1*	2.3
Exocytosis CP01	·	13.9	·	-3.3	·

Sorted by molecular weight (descending): part of the list above
34: CCOc1ccccc1CNC(=O)CCn1ccc2cc(S(=O)(=O)N3CCCCC3)ccc21
33: COc1cccc(O)c1CN1CCC(C(=O)Nc2ccc(Oc3cccnc3)cc2)CC1
31: CCN(C[C@H]1N[C@@H](CO)[C@@H]1c1ccc(C2=CCCC2)cc1)C(=O)c1ccncc1
screen / no.	34	33	31
PKA-R1A activ	9.7	-4.5	·
ABCB6 inh 2	98.0	94.0	·
Yeast UUG start	-10.8	-2.4	22.9
p-CIP stab down	-12.4	-12.8	·
PKA-R2B act	-0.5	-4.8	·
Granule exo inh	62.1*	-1.4	·
Exocytosis CP01	-3.3	·	·

More compounds
36: Cc1ccc(OCc2ccc(-c3ccccc3)cc2)c([N+](=O)[O-])n1
37: Cc1cc(Nc2cccc(Cl)c2)c2ccccc2n1
38: Cc1cccc(Nc2cc(C)nc3ccccc23)c1
39: COc1ccccc1-n1c(CCC(=O)O)ccc1-c1ccccc1
40: COc1ccc(-c2ccc(CCC(=O)O)n2-c2ccccc2OC)cc1
screen / no.	36	37	38	39	40
PKA-R1A activ	-4.2	3.6	3.8	2.2	-5.7
ABCB6 inh 2	96.0	96.0	100.0	101.0	95.0
Yeast UUG start	-18.9	16.3	-11.2	-4.5	-6.7
p-CIP stab down	-3.5	-8.5	4.9	-2.9	2.8
PKA-R2B act	-4.3	0.3	-2.7	0.0	-4.0
Granule exo inh	88.1*	77.5*	12.4	-3.0	67.0*
Exocytosis CP01	-3.4	-8.2	·	·	-3.9

41: CCC(=O)Nc1cc2[nH]c(=O)cc(C)c2cc1C
42: Cc1cc2c(C)cc(=O)[nH]c2cc1NC(=O)CCl
43: COc1ccc(-c2n[nH]c(C)c2-c2cscn2)c(O)c1
44: C=C(C)COc1ccc(-c2n[nH]c(C)c2-c2ccc(OC)cc2)c(O)c1
45: COc1ccc(S(=O)(=O)N(C)C[C@@H]2Oc3c(NC(=O)C4CCOCC4)cccc3C(=O)N([C@@H](C)CO)C[C@H]2C)cc1
46: CCCCc1ccc(NC(=O)CSc2nc(=O)n(CCN(CC)CC)c3c2CCC3)cc1
screen / no.	41	42	43	44	45	46
PKA-R1A activ	-0.7	-11.6	-0.6	-5.6	·	-5.6
ABCB6 inh 2	101.0	95.0	98.0	97.0	·	99.0
Yeast UUG start	·	·	-6.2	0.6	-0.7	10.0
p-CIP stab down	0.3	0.8	5.6	12.4	·	·
PKA-R2B act	3.0	-9.1	5.0	-18.7	·	-10.1
Granule exo inh	58.5*	-2.9	0.6	64.9*	·	83.6*
Exocytosis CP01	-3.2	·	·	98.0*	·	21.5
